The chains behind the UniProt entries cited, without tags or fusion partners.
UniProt P35557, whole entry: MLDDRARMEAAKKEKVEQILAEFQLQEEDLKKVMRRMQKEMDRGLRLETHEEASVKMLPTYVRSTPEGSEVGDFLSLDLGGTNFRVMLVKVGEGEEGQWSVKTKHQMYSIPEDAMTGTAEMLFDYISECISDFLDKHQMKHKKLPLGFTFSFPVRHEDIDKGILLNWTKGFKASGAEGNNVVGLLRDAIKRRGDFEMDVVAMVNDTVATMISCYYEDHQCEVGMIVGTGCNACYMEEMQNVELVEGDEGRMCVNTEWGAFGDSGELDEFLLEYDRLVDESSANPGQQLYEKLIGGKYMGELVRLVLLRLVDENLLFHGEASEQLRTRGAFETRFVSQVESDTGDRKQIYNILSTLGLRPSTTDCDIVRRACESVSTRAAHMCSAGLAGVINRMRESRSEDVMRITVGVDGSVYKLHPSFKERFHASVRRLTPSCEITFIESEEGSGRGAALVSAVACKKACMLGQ

According to patent US7745475B2, “Heteroaryl benzamide derivatives as GLK activators” (AstraZeneca AB, priority 2004, dated 2010):

Biological target: recombinant human pancreatic GLK (Homo sapiens, UniProt P35557)
Experiment: Enzymatic activity of recombinant human pancreatic GLK (G-6-P dehydrogenase coupled, OD 340 nm)
Settings: comparison in words

Q: Which “EC50 values, Example 3a compared with Example II107 in WO 03/015774” value does the source give for `Cc1cnc(NC(=O)c2cc(OCCc3ccsc3)cc(OC(C)C)c2)s1` [Example II107, reference compound] here?
A: The value was “broadly similar”.
